Assay [1] addresses T1, human alpha7 nAChRs (Homo sapiens, UniProt P36544).
T1 construct: expressed in transfected cells; host or cells: Xenopus laevis oocytes (cDNA injection)
The assay is described as follows: Antagonistic activity / desensitization, cumulative exposure in the low concentration range (Example 2). The note with it: concentrations up to 300 nM. The format is cell-based.

Amino acid sequences for entries named in this document (tags omitted). Residues count along the entry.
UniProt P36544, 23-502: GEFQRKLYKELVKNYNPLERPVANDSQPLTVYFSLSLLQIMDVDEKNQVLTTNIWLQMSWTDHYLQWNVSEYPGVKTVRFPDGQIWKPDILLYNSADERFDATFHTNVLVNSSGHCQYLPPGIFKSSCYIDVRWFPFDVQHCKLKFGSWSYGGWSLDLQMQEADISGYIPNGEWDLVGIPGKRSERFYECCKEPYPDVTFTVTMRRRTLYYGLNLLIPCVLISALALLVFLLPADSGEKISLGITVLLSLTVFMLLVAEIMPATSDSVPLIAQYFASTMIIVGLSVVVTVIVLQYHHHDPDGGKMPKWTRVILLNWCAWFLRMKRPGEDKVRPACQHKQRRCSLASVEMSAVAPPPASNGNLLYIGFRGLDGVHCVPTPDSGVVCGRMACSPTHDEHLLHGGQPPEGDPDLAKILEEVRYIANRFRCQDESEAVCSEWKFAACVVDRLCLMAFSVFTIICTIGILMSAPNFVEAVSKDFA

In assay [2] the target is T2, human nAChR alpha7 (Homo sapiens, UniProt P36544).
T2 construct: expressed in transfected cells; host or cells: Xenopus laevis oocytes (cDNA injection)
In words: Agonist activity, two-electrode voltage clamp in Xenopus oocytes (Examples 2 and 5). Type of assay: cell-based. On the procedure:
All experiments were carried out at human nAChRs expressed in Xenopus oocytes using the method of cDNA expression. Xenopus oocytes were prepared and injected using standard procedures.
Briefly, ovaries were harvested from Xenopus Laevis females that have been deeply anesthetized by cooling at 4° C. and Tricaine methanesulfonate (MS-222 at a concentration of 150 mg/L) in sodium bicarbonate (300 mg/L). Once anesthetized the animal was decapitated and pithed following the rules of animal rights from the Geneva canton. A small piece of ovary was isolated for immediate preparation while the remaining part was placed at 4° C. in a sterile Barth solution containing in mM NaCl 88, KCl 1, NaHCO32.4, HEPES 10, MgSO4.7H2O 0.82, Ca(NO3)2.4H2O 0.33, CaCl2.6H2O 0.41, at pH 7.4, and supplemented with 20 μg/ml of kanamycin, 100 unit/ml penicillin. All recordings were performed at 18° C. and cells superfused with OR2 medium containing in mM: NaCl 88, KCl 2.5, HEPES 5, CaCl2.2H2O 1.8, MgCl2.6H2O 1, pH 7.4.
Currents evoked by ACh or other agonists were recorded using an automated process equipped with standard two-electrode voltage-clamp configuration (TEVC). Data were captured and analyzed using a HiQScreen proprietary data acquisition and analysis software running under Matlab (Mathworks Inc.).
See Example 1. […] The test concentration of acetylcholine chloride was 1280 micromolar. […]
A protocol to determine agonistic activity in the oocytes expressing the nAChRs was developed. […] The current evoked from exposure to the agonist at each concentration was recorded. […]
A protocol to determine agonistic activity in the oocytes expressing the nAChRs was developed. Oocytes expressing a nAChR subtype were exposed to a brief test pulse of acetylcholine (1280 micromolar) while the holding current and response was evaluated. […] The current evoked from exposure to the agonist at each concentration was recorded. […]
A general note: Two-electrode voltage clamp holds a large cell at a set potential and records current.

Where “and” joins values, the source holds several entries; their conditions need not be identical. Equal values may be shown once. Entries after “also recorded” stand apart in the source; their conditions may differ.

This is an account of results in US20210379066A1, “COMBINATIONS OF POSITIVE ALLOSTERIC MODULATORS AND NICOTINIC ACETYLCHOLINE RECEPTOR AGONISTS FOR TREATING OCULAR CONDITIONS” (Oyster Point Pharma, Inc., priority 2018, published 2021).

The EC50 is the concentration that produces a half-maximal response. On to “varenicline tartrate [reference compound]”, for which, in assay [1], the “inhibition of the ACh-evoked current by sustained exposure” value is “inhibition for concentrations in the hundreds of nanomolar range; also recorded: causes a desensitization”. The EC50 in assay [2] (Example 2, value for compound 1 salt only an estimation) was ~11 µM and ~15 µM. Besides, the “effect on the subsequent ACh-evoked current” value in assay [2] (after exposure to the agonist) is given as “no significant inhibition”. Moreover, the agonist character result in assay [2] (versus ACh response) was “full agonist; also recorded: responses equivalent to ACh”.
